Assay results: US4761478A, “3-deazaguanine sulfonic acid salts” (Warner-Lambert Company, priority 1986, dated 1988)

Experiment: Water solubility of 3-deazaguanine and its acid addition salts (Table I)
Type: physicochemical
Conditions: 3-deazaguanine salts
Experimental: The common acids employed for the formulation of acid addition salts of pharmaceutical bases are listed in J. Pharm. […] The solubility values presented in Table I were determined as follows: 3-deazaguanine (250 mg) was suspended in a small volume of water and one equivalent weight of the acid was added with stirring. Stirring was continued and small volumes of water were added intermittently until complet solution was obtained.

Substance: Hydrochloric
- water solubility (in words): poorly soluble
